Here are results for 5 compounds from patent publication US9499496B2, “Inhibitors of respiratory syncytial virus” (University of Kansas, priority 2012, dated 2016).

Protein sequences, listed by entry. Tags and fused reporters are not part of them. Lines headed by an entry give the natural chain unless they say otherwise; changes in a name come on top.
UniProt P25105: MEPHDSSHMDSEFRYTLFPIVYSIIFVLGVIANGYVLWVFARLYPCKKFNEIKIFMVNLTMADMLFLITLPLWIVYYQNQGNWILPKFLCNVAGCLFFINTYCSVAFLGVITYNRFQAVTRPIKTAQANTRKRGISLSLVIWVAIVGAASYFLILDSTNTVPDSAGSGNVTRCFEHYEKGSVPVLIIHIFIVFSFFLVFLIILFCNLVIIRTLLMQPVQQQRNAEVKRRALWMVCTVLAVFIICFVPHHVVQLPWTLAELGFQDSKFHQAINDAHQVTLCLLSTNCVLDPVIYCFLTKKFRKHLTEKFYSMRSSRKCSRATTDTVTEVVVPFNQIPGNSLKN
UniProt P23975, whole entry: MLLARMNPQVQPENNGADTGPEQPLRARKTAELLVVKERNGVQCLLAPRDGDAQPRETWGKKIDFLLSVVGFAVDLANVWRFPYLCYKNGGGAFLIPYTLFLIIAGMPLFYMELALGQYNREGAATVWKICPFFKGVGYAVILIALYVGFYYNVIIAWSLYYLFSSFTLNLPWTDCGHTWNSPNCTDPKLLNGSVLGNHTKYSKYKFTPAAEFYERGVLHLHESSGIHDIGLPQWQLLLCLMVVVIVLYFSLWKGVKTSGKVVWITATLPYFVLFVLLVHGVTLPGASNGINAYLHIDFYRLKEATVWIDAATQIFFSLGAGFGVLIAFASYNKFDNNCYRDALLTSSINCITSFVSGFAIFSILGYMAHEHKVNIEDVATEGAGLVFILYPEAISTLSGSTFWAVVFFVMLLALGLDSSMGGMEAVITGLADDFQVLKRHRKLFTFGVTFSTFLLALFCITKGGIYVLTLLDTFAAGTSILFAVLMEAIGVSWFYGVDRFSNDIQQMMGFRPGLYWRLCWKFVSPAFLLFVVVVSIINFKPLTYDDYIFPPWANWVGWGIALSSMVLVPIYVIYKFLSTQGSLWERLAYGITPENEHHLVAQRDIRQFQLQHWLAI
UniProt P0DMS8, whole entry: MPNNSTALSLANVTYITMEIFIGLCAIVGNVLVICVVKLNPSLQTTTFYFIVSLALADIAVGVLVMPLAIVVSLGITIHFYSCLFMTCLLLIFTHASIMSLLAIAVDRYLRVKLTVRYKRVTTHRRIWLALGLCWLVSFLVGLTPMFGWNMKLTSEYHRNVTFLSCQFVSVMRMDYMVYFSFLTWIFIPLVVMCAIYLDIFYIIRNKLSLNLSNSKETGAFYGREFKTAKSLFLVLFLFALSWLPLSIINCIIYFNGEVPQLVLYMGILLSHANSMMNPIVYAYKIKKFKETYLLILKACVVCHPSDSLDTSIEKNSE
UniProt P41595, whole entry: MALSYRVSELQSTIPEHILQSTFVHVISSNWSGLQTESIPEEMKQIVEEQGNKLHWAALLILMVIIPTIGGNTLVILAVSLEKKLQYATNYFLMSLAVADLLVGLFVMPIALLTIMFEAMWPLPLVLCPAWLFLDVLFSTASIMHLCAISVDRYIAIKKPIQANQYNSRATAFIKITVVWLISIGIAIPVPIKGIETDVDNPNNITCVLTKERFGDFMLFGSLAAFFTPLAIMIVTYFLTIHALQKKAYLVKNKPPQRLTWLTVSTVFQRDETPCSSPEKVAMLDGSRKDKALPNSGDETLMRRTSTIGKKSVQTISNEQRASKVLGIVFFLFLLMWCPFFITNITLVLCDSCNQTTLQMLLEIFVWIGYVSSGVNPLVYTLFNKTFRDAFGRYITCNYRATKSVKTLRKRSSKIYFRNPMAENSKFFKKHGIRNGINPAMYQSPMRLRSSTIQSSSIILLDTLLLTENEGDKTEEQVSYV
UniProt P21554, whole entry: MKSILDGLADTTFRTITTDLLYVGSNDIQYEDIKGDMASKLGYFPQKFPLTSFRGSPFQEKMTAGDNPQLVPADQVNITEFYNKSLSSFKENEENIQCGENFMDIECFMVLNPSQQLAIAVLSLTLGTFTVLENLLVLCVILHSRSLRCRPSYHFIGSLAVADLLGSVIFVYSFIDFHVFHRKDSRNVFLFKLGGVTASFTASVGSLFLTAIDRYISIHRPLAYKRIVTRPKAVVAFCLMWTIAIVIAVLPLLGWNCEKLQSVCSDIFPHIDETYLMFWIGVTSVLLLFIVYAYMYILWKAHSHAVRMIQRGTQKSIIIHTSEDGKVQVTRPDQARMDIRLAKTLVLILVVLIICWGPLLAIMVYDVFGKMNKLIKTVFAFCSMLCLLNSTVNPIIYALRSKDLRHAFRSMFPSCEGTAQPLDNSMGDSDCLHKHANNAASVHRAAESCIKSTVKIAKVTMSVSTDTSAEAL

SMILES strings stand for the structures. Several values for one entry are separate records, joined by “and”; a condition that tells them apart may be missing. Equal entries are not always repeated. Where two headings read alike, the source gives them in different places.

The nature of data set [1]: Solubility in RSV CPE assay media. The conditions noted are these: DMEM/F12, Pen/Strep/Glutamine, 2% heat inactivated FBS.
Data set [2] has as its target human platelet activating factor (Homo sapiens, UniProt P25105). Kind of data set: biochemical.
The target in data set [3] is Transporter, Norepinephrine (NET) (Homo sapiens, UniProt P23975). Kind of data set: biochemical. The conditions noted are these: read-out: Percent Inhibition.
The target of data set [4] is human adenosine A3 receptor (Homo sapiens, UniProt P0DMS8). Kind of data set: biochemical.
For data set [5], the target named is Serotonin (5-Hydroxytryptamine) 5-HT2B (Homo sapiens, UniProt P41595). Kind of data set: biochemical. The conditions noted are these: read-out: Percent Inhibition.
The next data set can be described thus: Solubility in PBS. As to conditions: PBS pH 7.4, room temperature (23° C.).
The next data set concerns the target Cannabinoid CB1 (Homo sapiens, UniProt P21554). Kind of data set: biochemical. As to conditions: read-out: Percent Inhibition.
Another data set concerns RSV. Kind of data set: RSV CPE assay (inhibition of RSV-induced cytopathic effect, luminescent cell viability readout). In kind it is cell-based, RSV (strain Long). As to conditions: antiviral activity over HEp-2 cell cytotoxicity. Background: Damage to the host cells serves as the signal in cytopathic effect assays.
A short description of the next data set: in vitro. The conditions noted are these: human.

On to `COCCCNC(=O)c1ccc(Cn2c(=O)c3ccccc3n(Cc3ccc([N+](=O)[O-])cc3)c2=O)cc1` [Compound B, N-(3-methoxypropyl)-4-((1-(4-nitrobenzyl)-2,4-dioxo-1,2-dihydroquinazolin-3(4H)-yl)methyl)benzamide], for which the “CPE Assay Media Solubility” value in [1] was 1.4 μg/mL = and 2.79 μM. In addition, the “PAMPA Permeability” value is 364 ×10⁻⁶ cm/s (Donor pH 5.0, Acceptor pH 7.4, PBS, no additives); 349 ×10⁻⁶ cm/s (Donor pH 6.2, Acceptor pH 7.4, PBS, no additives); 356 ×10⁻⁶ cm/s (Donor pH 7.4, Acceptor pH 7.4, PBS, no additives).
By inhibition is commonly meant the relative decrease from the control value, in per cent. Take `COCCCNC(=O)c1ccc(Cn2c(=O)c3ccccc3n(Cc3ccc(C(C)C)cc3)c2=O)cc1` [Compound A, 4-((1-(4-isopropylbenzyl)-2,4-dioxo-1,2-dihydroquinazolin-3(4H)-yl)methyl)-N-(3-methoxypropyl)benzamide]: the inhibition at 10 µM came to 43% in data set [2]; 54% in [3]; 44% in data set [4]; 54% in [5]; 86% on Cannabinoid CB1. In addition, the “CPE Assay Media Solubility” value in data set [1] is 5.1 μg/mL and 10.21 μM. Also, the “PAMPA Permeability” value (Donor pH 5.0, Acceptor pH 7.4, 20% acetonitrile added) worked out at 718 ×10⁻⁶ cm/s; the “PAMPA Permeability” value (Donor pH 6.2, Acceptor pH 7.4, 20% acetonitrile added) was found to be 631 ×10⁻⁶ cm/s; the “PAMPA Permeability” value (Donor pH 7.4, Acceptor pH 7.4, 20% acetonitrile added) worked out at 703 ×10⁻⁶ cm/s. Further, in “Solubility in PBS”, the “PBS Solubility” value is 0.18 μg/mL and 0.36 μM.
Consider `COCCCNC(=O)c1ccc(Cn2c(=O)c3ccccc3n(Cc3ccc(C)cc3)c2=O)cc1` [hit compound, 4-((1-(4-methylbenzyl)-2,4-dioxo-1,2-dihydroquinazolin-3(4H)-yl)methyl)-N-(3-methoxypropyl)benzamide], for which the “Selectivity Index (CC50/EC50)” value in the data set on RSV was approximately 28. For the same compound, the “PBS Solubility” value in “Solubility in PBS” was determined as 0.13 µM.
In the case of `NC(=O)c1ncn([C@@H]2O[C@H](CO)[C@@H](O)[C@H]2O)n1` [ribavirin, reference compound], the “Selectivity Index (CC50/EC50)” value in the data set on RSV was determined as 3.6.
For the compound `Cc1ccc(Cn2c(=O)n(Cc3ccc(C(=O)NCC4COC4)cc3)c(=O)c3ccccc32)cc1` [Compound F, 4-((1-(4-methylbenzyl)-2,4-dioxo-1,2-dihydroquinazolin-3(4H)-yl)methyl)-N-(oxetan-3-ylmethyl)benzamide], the “Selectivity Index (CC50/EC50)” value was 66.1 and 41.8 with RSV; 66 in the data set on RSV (listed as FIG. 4, entry 8). Besides, the CC50 in the data set “in vitro” was 47 ± 1.9 µM.
